# Compound activity as filed in PubChem BioAssay.
# In the library only some 1.3% were active in any assay of this set; here they are far more common.
# ERAP1 HTS inh = blocks human ERAP1 aminopeptidase activity | inhibition, % at 10.7 µM | recombinant ERAP1, Leu-AMC fluorescence, 60 min | 340,000 tested, 0.15% active;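 active = mean replicate inhibition of at least 30%, or all replicates individually reaching that 30% level; inactive = mean below 30% and not every replicate reaching it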;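 also: 0% = neutral control wells and 100% = L-leucinethiol positive control wells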
# Yeast UUG start = modulators of start codon recognition fidelity in yeast; S. cerevisiae UUG-firefly luciferase reporter, luminescence/redox ratio; AID 602363; 350,000 tested, 0.13% active; activity score, % at 18.7 µM;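 active = replicate mean at a twofold rise or more, about +100% in these data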;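 also: firefly luciferase made from a UUG start codon reports start codon fidelity; reporter light over untreated wells divided by growth signal over untreated wells; some hits fall short of that in this replicate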
# ARNT-TACC3 inh = disrupts binding between human ARNT and TACC3 | AlphaScreen His-ARNT PAS-B/GST-TACC3 binding, luminescence; TACC3 fragment carries E629A point mutation | Q9Y6A5 | inhibition, % at 9.99 µM | 390,000 tested, 0.66% active;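 active = mean inhibition of replicates at least 50% and at least half of replicates each reaching 50%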;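 also: 0% = complete ARNT plus TACC3 wells and 100% = ARNT alone without TACC3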
# E-selectin induc = E-selectin induction on HUVECs; AID 686992; P16581; activation, % at 7.58 µM; 260,000 tested, 0.37% active; HUVEC E-selectin immunofluorescence imaging; normalized: neutral wells 0, TNF-alpha wells 100;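 active = mean E-selectin-positive cell signal at least 10% of the positive control, reached in at least 60% of replicates, without over 20% cell loss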
#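 Material: HUVEC primary endothelial cells; Amount: 3,000 cells per well; Dosing: single concentration; Medium: EGM-2 growth medium on 0.1% gelatin-coated wells; Read-out basis: percent E-selectin-positive cells; Signal: immunofluorescence imaging; Control set: TNF-alpha, DMSO.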
# S100A4 inh HTS = S100A4-myosin IIA interaction inhibition | 360,000 tested, 0.14% active | AID 652163 | inhibition, % at 10.7 µM | S100A4/TAMRA-MyoIIA peptide fluorescence polarization;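 active = mean inhibition of at least 70% across replicates, with every replicate also reaching that level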
#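 incubation = readout 5 min after mixing, signal stable up to 60 min | system = S100A4 monomer protein | buffer or medium = HEPES pH 7.2 with CaCl2, KCl, NaCl, DTT, Triton | benchmarks = neutral control DMSO, positive control TFP | also added = fluorescent myosin IIA peptide, 5 nM | compound dosing = one concentration per compound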
# MLL AF4-AF9 inh = inhibitors of human MLL-AF4/AF9 interaction; P42568; AlphaScreen, biotin-AF4 peptide binding to FLAG-AF9; inhibition, % at 10 µM; 350,000 tested, 0.47% active; AID 651704;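 active = every replicate reaching a set inhibition limit, whatever the replicate mean, cut at about 25% in these data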;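 also: 0% = plate neutral control median and 100% = total signal loss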
# Numbers without * were called inactive; nt = no result given; ! = repeats disagree.
item | molecule | ERAP1 HTS inh | ARNT-TACC3 inh | S100A4 inh HTS
1 | C[C@@H]1CCCCO[C@@H](CN(C)CC2CCCCC2)[C@H](C)CN([C@@H](C)CO)C(=O)c2cc(NC(=O)c3ccncc3)ccc2O1 | -2.3 | -5.4 | -13.1
2 | CN(C1CCCC1)C1CCN(C(=O)CNC(=O)/C=C/c2ccc(F)cc2)CC1 | -0.9 | -6.3 | -1.5
3 | CN(C1CCCC1)C1CCN(C(=O)CNC(=O)/C=C/c2cccc(C(F)(F)F)c2)CC1 | 4.8 | 6.0 | 1.7
4 | O=C(c1cc(COc2cccc3cccnc23)on1)N1CCC[C@H]1CO | -5.6 | nt | -10.8
5 | NC(=O)CSc1nnc(-c2ccccn2)n1N | nt | 45.0* | -0.8
6 | COc1ccc(NC(=O)Nc2ccc3c(c2)C(=O)N([C@@H](C)CO)C[C@H](C)[C@@H](CN(C)Cc2ccc(-c4ccccc4)cc2)O3)cc1 | -2.9 | 19.8 | 13.3
7 | Cn1c(SCC(=O)c2ccccc2)nnc1-c1ccc(O)cc1 | nt | 2.3 | nt
8 | Cn1c(SCc2ccccc2)nnc1-c1ccc(O)cc1 | -2.3 | active | 2.7
9 | CC1Nc2ncnc(N3CCOCC3)c2N(Cc2ccccc2)C1=O (stereo not drawn) | -1.5 | 23.4* | -3.6
10 | COc1ccc(CN2C(=O)C(C)Nc3ncnc(N4CCOCC4)c32)cc1 (stereo not drawn) | 1.1 | 0.6 | -4.6
11 | CN(Cc1ccsc1)C(=O)CCc1nnc(CCCc2ccccc2)o1 | nt | -2.4 | -0.9
12 | CN(Cc1ccsc1)C(=O)CCc1nnc(Cc2c[nH]c3ccccc23)o1 | 4.2 | -10.5 | -3.0
13 | C/C=C/c1ccc2c(c1)O[C@H](CN(C)C(=O)Cc1ccccc1)[C@@H](C)CN([C@@H](C)CO)S2(=O)=O | 3.5 | 1.7 | 2.4
14 | CC1(C)NC(=O)N(CC(=O)OCC(=O)NC(=O)c2ccccc2)C1=O | 63.7* | -8.5 | -3.3
15 | Cc1cc(C)nc(N/N=C/c2sccc2C)n1 | 2.8 | -2.1 | -3.3

item | MLL AF4-AF9 inh | Yeast UUG start | E-selectin induc
1 | -4.4 | nt | -0.1
2 | 1.8 | -14.3 | -0.4
3 | -0.7 | -12.4 | 38.7*
4 | 40.6* | -28.0 | -3.0
5 | -0.3 | nt | nt
6 | 1.6 | -6.0 | 1.0
7 | nt | -23.0 | nt
8 | -0.8 | -5.2 | 0.1
9 | 4.9 | 4.5 | -0.1
10 | 3.1 | 0.7 | 1.0
11 | -0.8 | -3.1 | 27.3*
12 | 0.5 | nt | nt
13 | 3.7 | 9.6 | -0.3
14 | 0.7 | nt | 0.1
15 | 0.5 | nt | nt

# (listing goes on)
item | molecule | ERAP1 HTS inh | ARNT-TACC3 inh | S100A4 inh HTS
16 | Cc1ccsc1/C=N/Nc1nc(=O)[nH]nc1C | -1.3 | 63.7* | 0.1
17 | Cc1cccc(NC(=O)CSc2cn[nH]n2)c1 | -2.1 | -5.4 | 2.9
18 | O=C(CSc1cn[nH]n1)Nc1cccc(C(=O)O)c1 | 32.4* | nt | -4.9
19 | Cc1[nH]c(=O)[nH]c(=O)c1/C=N/NC(=O)[C@@H](N)CC(C)C | nt | 65.1* | -4.5
20 | Cc1[nH]c(=O)[nH]c(=O)c1/C=N/NC(=O)[C@H](CC(C)C)NC(=O)OC(C)(C)C | nt | 24.0 | nt
21 | COc1cccc(NC(=O)N(C)C[C@@H]2Oc3cc(C#CC4(O)CCCC4)ccc3S(=O)(=O)N([C@@H](C)CO)C[C@H]2C)c1 | 0.3 | 0.5 | 6.7
22 | COCC(=O)N(C)C[C@H]1Oc2cc(C#CCN(C)C)ccc2S(=O)(=O)N([C@@H](C)CO)C[C@H]1C | -5.1 | -2.8 | 111.6*
23 | C[C@H](CO)N1C[C@H](C)[C@@H](CN(C)C)Oc2cc(C#Cc3ccccc3F)ccc2S1(=O)=O | -0.1 | 1.2 | 15.8
24 | CCCC#Cc1ccc2c(c1)O[C@@H](CN(C)CCC)[C@@H](C)CN([C@@H](C)CO)S2(=O)=O | -1.5 | -1.0 | -4.8
25 | CCCN(C)C[C@@H]1Oc2cc(C#CCC(C)C)ccc2S(=O)(=O)N([C@H](C)CO)C[C@@H]1C | 2.6 | -0.1 | -3.5
26 | COc1cccc(NC(=O)N(C)C[C@H]2Oc3cc(C#CC4(O)CCCC4)ccc3S(=O)(=O)N([C@H](C)CO)C[C@H]2C)c1 | 3.0 | nt | 95.4*
27 | CCCN1C[C@@H](C)[C@H](OC)CN(C)C(=O)c2cc(NC(=O)Nc3ccccc3F)ccc2OC[C@H]1C | nt | -4.6 | -2.0
28 | CCCN(C)C[C@@H]1OCc2cnnn2CCCC(=O)N([C@@H](C)CO)C[C@H]1C | 2.7 | -3.8 | 4.2
29 | CCC(=O)N1CCC2(CC1)CN(C(=O)Nc1ccccc1F)[C@H](CO)c1c2c2ccc(OC)cc2n1C | nt | nt | nt
30 | N#Cc1ccc(-c2ccc3c(c2)[C@@H]2[C@@H](CCN2C(=O)c2ccc(F)cc2)[C@@H](CO)N3)cc1 | nt | 0.6 | nt

item | MLL AF4-AF9 inh | Yeast UUG start | E-selectin induc
16 | 5.8 | nt | nt
17 | -0.8 | -13.8 | -0.2
18 | 0.4 | -13.2 | nt
19 | -7.3 | nt | -0.5
20 | nt | 8.8 | nt
21 | -2.4 | nt | 0.5
22 | -4.0 | 3.7 | -0.5
23 | -5.2 | -3.5 | 103.7*
24 | 3.5 | 10.0 | 85.1*
25 | 5.3 | -3.2 | 0.6
26 | 4.0 | nt | 0.1
27 | -0.2 | nt | -0.3
28 | -2.3 | -12.0 | 0.4
29 | -3.1 | nt | -0.2
30 | nt | 3.6 | 0.5

# (listing goes on)
item | molecule | ERAP1 HTS inh | ARNT-TACC3 inh | S100A4 inh HTS
31 | Cc1noc(C)c1NC(=O)N(C)C[C@H]1Oc2cc(C#CCC(C)C)ccc2S(=O)(=O)N([C@H](C)CO)C[C@@H]1C | 0.8 | -3.8 | 24.0
32 | COCC(=O)N(C)C[C@H]1Oc2cc(C#Cc3cccnc3)ccc2S(=O)(=O)N([C@H](C)CO)C[C@H]1C | -0.5 | active! | -2.0
33 | Cc1noc(C)c1NC(=O)N(C)C[C@@H]1Oc2cc(C#CCC(C)C)ccc2S(=O)(=O)N([C@H](C)CO)C[C@H]1C | 1.3 | -2.1 | 3.5
34 | COc1ccccc1N1CCN(/N=C/c2ccc([N+](=O)[O-])cc2)CC1 | 1.7 | 41.1 | 0.2
35 | O=[N+]([O-])c1ccc(C=NN2CCCCCC2)cc1 | 0.4 | nt | -2.1
36 | CC(C)NC(=O)N(C)C[C@@H]1Oc2ccc(NC(=O)Nc3ccc4c(c3)OCO4)cc2C(=O)N([C@@H](C)CO)C[C@H]1C | -0.6 | -4.9 | -9.6
37 | O=C(NCCCn1ccnc1)C(=O)NCC1OCCN1S(=O)(=O)c1ccc2c(c1)OCCO2 (stereo not drawn) | -1.5 | 64.1* | 0.1
38 | Cc1ccccc1C(=O)Nc1cccc(C(=O)N/N=C/c2ccccn2)c1 | -3.6 | 45.6* | 3.2
39 | COc1ccccc1/C=N/NC(=O)c1cccc(NC(=O)c2ccccc2C)c1 | -1.2 | nt | -11.2
40 | CC(=O)c1ccc(N2CCN(c3ccnc4cc(Cl)ccc34)CC2)cc1 | -4.5 | 1.7 | -12.9
41 | CC(C)(C)C(=O)N1CCN(c2ccnc3cc(Cl)ccc23)CC1 | -3.9 | -4.1 | -2.4
42 | Cc1ccc(-c2ccnc3c(Cl)c(C)nn23)cc1 | 6.7 | -16.8 | -4.4
43 | Cc1nn2c(-c3ccncc3)ccnc2c1Cl | -6.0 | 17.4 | 13.8
44 | CO[C@@H]1CN(C)C(=O)c2ccc(NC(=O)c3cnccn3)cc2OC[C@H](C)N(CC2CC2)C[C@@H]1C | 1.4 | nt | -17.0
45 | CCS(=O)(=O)c1nc(S(=O)(=O)c2ccc(C)cc2)c(NCCCN2CCCC2=O)s1 | -2.1 | -13.4 | 84.0*

item | MLL AF4-AF9 inh | Yeast UUG start | E-selectin induc
31 | 5.8 | 3.9 | -0.2
32 | 0.2 | 22.9 | 0.4
33 | 29.6* | 11.6 | -0.1
34 | 0.8 | -0.3 | -0.1
35 | 35.0* | nt | nt
36 | -2.4 | -9.5 | -2.7
37 | -4.3 | nt | -0.1
38 | 4.1 | -10.5 | 0.1
39 | 2.2 | -8.3 | 16.0
40 | -2.5 | -19.0 | 40.1*
41 | -5.5 | -14.4 | nt
42 | 51.1* | -12.1 | -0.1
43 | -3.3 | -0.7 | 2.6
44 | -2.6 | nt | 4.5
45 | 0.0 | -5.7 | nt

# Records listed above printed as active in S100A4 inh HTS.
entry	smiles	ERAP1 HTS inh	ARNT-TACC3 inh	S100A4 inh HTS	MLL AF4-AF9 inh	Yeast UUG start
22	COCC(=O)N(C)C[C@H]1Oc2cc(C#CCN(C)C)ccc2S(=O)(=O)N([C@@H](C)CO)C[C@H]1C	-5.1	-2.8	111.6*	-4.0	3.7
26	COc1cccc(NC(=O)N(C)C[C@H]2Oc3cc(C#CC4(O)CCCC4)ccc3S(=O)(=O)N([C@H](C)CO)C[C@H]2C)c1	3.0	nt	95.4*	4.0	nt
45	CCS(=O)(=O)c1nc(S(=O)(=O)c2ccc(C)cc2)c(NCCCN2CCCC2=O)s1	-2.1	-13.4	84.0*	0.0	-5.7
